# Results taken from ChEMBL document CHEMBL3352017, “2-Guanidinoquinazolines as new inhibitors of the STAT3 pathway” (Bioorg Med Chem Lett, 2014).
# How the values were obtained:
# cells [1] = conditions: Homo sapiens
# cells [2] = conditions: Homo sapiens, CAL-33
# FaDu = assay: cells; conditions: Homo sapiens
# cells [3] = conditions: Homo sapiens, OSC19
compound,measurement,setting,value
CC(C)(C)c1nc2c3ccc(F)cc3c3c(=O)[nH]ccc3c2[nH]1,IC50,cells [1],> 5 µM
same,IC50,cells [2],1.3 µM
same,IC50,FaDu,2.4 µM
same,IC50,cells [3],7.7 µM
